The values that follow come from patent publication US9980966B2, “Combinations of cancer therapeutics” (Merck Patent GmbH, priority 2014, dated 2018).

In the assay the test system is Her2+ patient-derived breast model "CTG-0033". Kind of assay: Patient derived xenograft model of breast cancer, tumor volume efficacy study. In kind it is in vivo, mice. Particulars: Day 55; Herceptin 30 mg/kg loading dose and 15 mg/kg maintenance dose QW IV. From the text:
Female nude (Harlan; nu/nu) between 5-7 weeks were implanted subcutaneously with tumor fragments from the Her2+ patient-derived breast model “CTG-0033” (passage 3, i.e. the model has been serially passaged/grown from the original host 3 times) harvested from host animals. When host tumors reached 1-1.5 cm^3, tumors were harvested for re-implantation into animals to be used for the efficacy study. When the CTG-0033 (passage 4) tumors reached approximately 190 mm^3; animals were randomized by tumor volume into treatment or control groups (n=10) and dosing was initiated on Day 0. Treatments were Vehicle (Saline), Compound A 30 mg/kg QD (daily) PO (per oral), Herceptin (30 mg/kg loading dose and 15 mg/kg maintenance dose) QW (per week) IV (intravenous), and Compound A 30 mg/kg QD PO in combination with Herceptin 15 mg/kg QW IV. Tumor volumes were recorded twice per week. Vehicle treatment group was terminated at Day 55 due to large tumors. The other treatments were stopped at Day 75 and tumors were allowed to grow back for over 2 months with mice receiving no treatment. Two animals died in this study. One animal in the Compound A group died at day 9 due to a suspected gavage error and the other in the Compound A+Herceptin group due to human error.

In the case of “Herceptin: recombinant DNA-derived humanized monoclonal IgGI kappa antibody that binds to the extracellular domain of the HER2 receptor [reference compound]”, the “% T/C” value came to 37%.
